The target in assay [1] is Cyclin-dependent kinase 1 (Homo sapiens, UniProt P06493).
Assay [2] addresses Serine/threonine-protein kinase PLK1 (Homo sapiens, UniProt P53350).

Amino acid sequences for entries named in this document (tags omitted).
UniProt P06493, whole entry: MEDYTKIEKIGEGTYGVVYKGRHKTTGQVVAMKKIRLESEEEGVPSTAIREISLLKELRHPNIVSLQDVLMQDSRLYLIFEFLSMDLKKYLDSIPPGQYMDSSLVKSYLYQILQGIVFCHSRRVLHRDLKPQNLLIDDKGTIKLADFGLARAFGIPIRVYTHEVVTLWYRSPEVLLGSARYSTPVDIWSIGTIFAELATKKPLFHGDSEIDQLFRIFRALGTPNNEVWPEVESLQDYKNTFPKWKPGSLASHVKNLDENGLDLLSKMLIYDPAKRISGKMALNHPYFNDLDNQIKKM
UniProt P53350, whole entry: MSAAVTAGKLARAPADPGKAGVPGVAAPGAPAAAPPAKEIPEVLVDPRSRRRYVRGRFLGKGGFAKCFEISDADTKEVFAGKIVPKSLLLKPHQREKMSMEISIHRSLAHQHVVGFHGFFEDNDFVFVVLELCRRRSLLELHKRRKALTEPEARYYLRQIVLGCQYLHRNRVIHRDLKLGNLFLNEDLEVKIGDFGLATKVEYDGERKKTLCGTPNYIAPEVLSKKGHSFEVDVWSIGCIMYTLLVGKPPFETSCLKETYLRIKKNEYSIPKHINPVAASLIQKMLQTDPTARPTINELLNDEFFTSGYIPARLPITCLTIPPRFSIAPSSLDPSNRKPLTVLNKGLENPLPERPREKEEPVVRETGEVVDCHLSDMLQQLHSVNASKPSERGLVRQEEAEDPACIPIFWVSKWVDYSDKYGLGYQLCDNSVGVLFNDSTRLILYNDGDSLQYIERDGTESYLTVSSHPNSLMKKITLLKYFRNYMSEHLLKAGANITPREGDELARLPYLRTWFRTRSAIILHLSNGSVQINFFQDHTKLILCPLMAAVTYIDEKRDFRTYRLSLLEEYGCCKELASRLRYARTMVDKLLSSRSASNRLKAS

Take `COc1cc2c(Nc3ccc(NC(=O)c4ccccc4)cc3)ncnc2cc1OCCCN1CCOCC1` [N-[4-({6-methoxy-7-[3-(morpholin-4-yl)propoxy]quinazolin-4-yl}amino)phenyl]benzamide]: the IC50 in assay [1] and in assay [2] was > 10 µM each time.

A word on the IC50: it is the concentration at which inhibition is half-maximal. Low values mean greater potency, high ones weaker potency.
